Experimental data: ChEMBL document CHEMBL4184306, “The synthesis and evaluation of thymoquinone analogues as anti-ovarian cancer and antimalarial agents” (Bioorg Med Chem Lett, 2018)

Tested on: A2780 (human)
Experiment: Selectivity index, ratio of IC50 for SV-40 immortalized human ovarian epithelial cells to IC50 for human A2780 cells

CC1=CC(=O)C(C(C)C)=CC1=O [THYMOQUINONE]
selectivity ratio: 2.3
